# According to ChEMBL document CHEMBL1126786, “Nitrobenzyl mustard quaternary salts: a new class of hypoxia-selective cytotoxins showing very high in vitro selectivity” (1993):
# Test system: UV4
# Test: Hypersensitivity factor which is a ratio of IC50 of AA8 cells to that of the UV4 cells
smiles,measurement,value
CN(CCCl)CCCl,Ratio,28
